Measurements taken from PubChem BioAssay (Tox21).
The list shows a part of the results, in another mix than the full data. Some of these compounds have results that are not shown, active ones among them. Records with an inconclusive call do not appear. Active and inactive are the calls of the source. Unless noted, calls come from the whole dose curve; as a rule, active = well fitted curve in the direction sought with a large enough effect in the repeat runs; inconclusive = weak or mixed curves; inactive = no such curve, though single readings can be large; an effect the other way counts as inactive or inconclusive.

Amino acid sequences for entries named in this document (tags omitted).
UniProt P03372, whole entry: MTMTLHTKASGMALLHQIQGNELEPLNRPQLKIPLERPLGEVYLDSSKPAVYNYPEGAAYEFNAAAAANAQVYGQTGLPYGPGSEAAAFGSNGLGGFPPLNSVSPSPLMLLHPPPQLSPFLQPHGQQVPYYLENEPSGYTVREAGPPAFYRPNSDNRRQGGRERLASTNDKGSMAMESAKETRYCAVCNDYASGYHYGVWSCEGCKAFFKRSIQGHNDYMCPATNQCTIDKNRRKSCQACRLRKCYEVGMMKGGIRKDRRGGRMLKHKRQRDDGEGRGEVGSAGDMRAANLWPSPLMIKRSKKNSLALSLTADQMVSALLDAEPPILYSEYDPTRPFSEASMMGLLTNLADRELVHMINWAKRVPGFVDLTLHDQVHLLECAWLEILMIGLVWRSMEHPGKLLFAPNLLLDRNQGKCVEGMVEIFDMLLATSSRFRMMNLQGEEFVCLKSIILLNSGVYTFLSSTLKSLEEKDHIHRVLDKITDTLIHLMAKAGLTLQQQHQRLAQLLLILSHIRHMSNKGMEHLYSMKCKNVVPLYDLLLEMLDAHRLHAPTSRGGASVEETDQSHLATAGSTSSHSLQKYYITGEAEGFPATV
UniProt P11511, whole entry: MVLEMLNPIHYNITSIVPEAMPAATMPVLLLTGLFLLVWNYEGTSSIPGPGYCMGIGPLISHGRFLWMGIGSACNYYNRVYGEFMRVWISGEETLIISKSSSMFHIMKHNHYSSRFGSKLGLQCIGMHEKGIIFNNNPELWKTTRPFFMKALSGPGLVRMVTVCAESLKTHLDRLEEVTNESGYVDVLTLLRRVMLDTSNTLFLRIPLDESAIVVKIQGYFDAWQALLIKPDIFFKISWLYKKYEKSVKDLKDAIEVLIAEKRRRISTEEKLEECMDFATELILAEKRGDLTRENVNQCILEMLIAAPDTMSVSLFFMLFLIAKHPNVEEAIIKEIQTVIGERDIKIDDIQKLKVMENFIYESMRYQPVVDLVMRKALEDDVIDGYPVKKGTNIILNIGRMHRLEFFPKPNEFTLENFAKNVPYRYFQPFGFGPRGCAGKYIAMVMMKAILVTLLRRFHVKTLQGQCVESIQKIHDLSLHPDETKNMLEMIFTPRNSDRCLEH
UniProt P37231, whole entry: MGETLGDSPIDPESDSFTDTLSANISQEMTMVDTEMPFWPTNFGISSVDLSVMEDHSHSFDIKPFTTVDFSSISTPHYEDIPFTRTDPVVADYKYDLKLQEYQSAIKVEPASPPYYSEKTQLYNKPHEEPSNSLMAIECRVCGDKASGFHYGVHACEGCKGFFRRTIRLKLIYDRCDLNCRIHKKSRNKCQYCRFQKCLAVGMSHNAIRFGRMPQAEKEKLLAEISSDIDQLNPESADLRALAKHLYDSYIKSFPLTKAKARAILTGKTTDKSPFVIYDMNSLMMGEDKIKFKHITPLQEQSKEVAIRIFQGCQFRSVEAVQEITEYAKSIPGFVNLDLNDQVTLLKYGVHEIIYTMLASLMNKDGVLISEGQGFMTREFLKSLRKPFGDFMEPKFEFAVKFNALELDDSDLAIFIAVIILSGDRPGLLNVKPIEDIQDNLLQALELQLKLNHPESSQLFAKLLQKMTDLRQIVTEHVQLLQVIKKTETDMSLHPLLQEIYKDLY

What was measured:
[1] = qHTS assay for identifying genotoxic compounds that show differential cytotoxicity against isogenic chicken DT40 cell lines with known DNA damage response pathways - wild type cell line (AID 743012); details: DT40 wild type chicken cells viability, CellTiter-Glo, 40 h; at 68.4 µM (top of the series); note: nearly all actives have a fitted effect of over 60% in size
In short: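 Cells (DT40 wild type, 300/well) are treated with DMSO-dissolved compounds after a ~0.5 h pre-incubation and kept 40 h at 37 C/5% CO2. Viability is then measured by CellTiter-Glo luminescence following 30 min at room temperature.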

[2] = qHTS assay for identifying genotoxic compounds that show differential cytotoxicity against isogenic chicken DT40 cell lines with known DNA damage response pathways - Rev3 mutant cell line (AID 743014); details: chicken DT40 Rev3-/- viability, CellTiter-Glo, 40 h; at 68.4 µM (top of the series); note: nearly all actives have a fitted effect of over 55% in size
[3] = qHTS assay for identifying genotoxic compounds that show differential cytotoxicity against isogenic chicken DT40 cell lines with known DNA damage response pathways - Rad54/Ku70 mutant cell line (AID 743015); details: DT40 Rad54/Ku70 mutant viability, CellTiter-Glo, 40 h; at 66.8 µM (top of the series); note: nearly all actives have a fitted effect of over 60% in size
Excerpt: National Center for Advancing Translational Sciences [NCATS]
NIH Chemical Genomics Center [NCGC]
U.S. Environmental Protection Agency [EPA]
National Institutes of Environmental Health Sciences [NIEHS]
National Toxicology Program [NTP]
U.S. Food and Drug Administration [FDA]
DNA repair pathways play a critical role in cellular homeostasis by repairing DNA damage induced by endogenous processes and xenobiotics. Isogenic chicken DT40 cell lines deficient in different DNA repair pathways can be used to identify genotoxic compounds and aid in characterizing the nature of the DNA damage induced. Two DNA repair-deficient cell lines with disrupted genes, Rad54/Ku70 or Rev3, were used to screen the Tox21 10K compound library. Possible genotoxicity was based on the presence of a significant increase in cytotoxicity in one or more of the DNA repair-deficient cell lines compared to that observed in the parental DNA repair-proficient cell line. […]
300 DT40 mutant cells in 5 uL/well were dispensed into white, solid-bottom 1536-well plates using a Multidrop Combi (ThermoFisher Scientific, Waltham, MA) dispenser. […] After 5 uL per well of CellTiter-Glo reagent was added into each well of the assay plates, the plates were incubated for 30 min at room temperature and the luminescence intensity of the plates was measured using a ViewLux (PerkinElmer, Shelton, CT) plate reader.

[4] = qHTS assay to identify small molecule antagonists of the androgen receptor (AR) signaling pathway - cell viability counter screen (AID 743033; note: nearly all actives have a fitted effect of over 45% in size); details: AR-bla HEK293 viability, CellTiter-Glo luminescence, 16 h; at 58.5 µM (top of the series)
[5] = qHTS assay to identify small molecule antagonists of the androgen receptor (AR) signaling pathway using the MDA cell line - cell viability counter screen (AID 743041; note: nearly all actives have a fitted effect of over 45% in size); details: MDA-kb2 viability, CellTiter-Fluor, 16 h, cells co-treated with R1881 androgen agonist; at 70.3 µM (top of the series)
In short: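 Same-well cytotoxicity was assessed by CellTiter-Fluor in MDA-kb2 AR-luc cells after 16 h of compound treatment under R1881 agonism.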

[6] = qHTS assay to identify small molecule antagonists of the thyroid receptor (TR) signaling pathway - cell viability counter screen (AID 743064); details: GH3.TRE-Luc viability, CellTiter-Fluor, 24 h; at 70.3 µM (top of the series); note: nearly all actives have a fitted effect of over 50% in size
In short: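 In rat pituitary GH3.TRE-Luc reporter cells co-exposed to compound and 1 nM T3 for 23.5 h, cytotoxicity was assessed with CellTiter-Fluor in the same wells, read by fluorescence.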

[7] = qHTS assay to identify small molecule antagonists of the thyroid receptor (TR) signaling pathway (AID 743065); details: GH3.TRE-Luc, T3-stimulated luciferase inhibition, 23.5 h; at 70.3 µM (top of the series); note: nearly all actives have a fitted effect of over 55% in size
In short: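 GH3.TRE-Luc rat pituitary cells (two TREs driving luciferase) were dosed with compound, then stimulated with 1 nM T3 (final) for 23.5 h at 37 C. ONE-Glo luminescence was the read-out, with CellTiter-Fluor fluorescence as the cytotoxicity counter-screen.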

[8] = test system: thyroid hormone receptor (rat, GH3 cells); experiment: qHTS assay to identify small molecule agonists of the thyroid receptor (TR) signaling pathway (AID 743066; calls by dose curve); details: GH3.TRE-Luc cells, TR agonist luciferase, 24 h; at 83.9 µM (top of the series)
[9] = biological target: Estrogen receptor (Homo sapiens) (UniProt P03372); experiment: qHTS assay to identify small molecule antagonists of the estrogen receptor alpha (ER-alpha) signaling pathway (AID 743069; active = well fitted curve in the direction sought with a large enough effect in the signal ratio in the repeat runs, not every such curve was filed as active; the % refers to the signal ratio); details: HEK293 ER-alpha-UAS-bla, beta-lactamase ratio, antagonist mode; at 69.4 µM (top of the series)
In short: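 Reporter cells (ER-alpha-bla, HEK293 background) are conditioned overnight in stripped-serum medium (2% charcoal-stripped FBS). Compound and 17beta-estradiol exposure runs 18 hr at 37C, 5% CO2.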

[10] = qHTS assay to identify small molecule antagonists of the estrogen receptor alpha (ER-alpha) signaling pathway - cell viability counter screen (AID 743074; calls by dose curve;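 note: HEK293 cells carrying ER-alpha-UAS-bla reporter stimulated with 17beta-estradiol; nearly all actives have a fitted effect of over 45% in size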); details: ERalpha-bla HEK293 viability, CellTiter-Glo luminescence, 18 h; at 69.4 µM (top of the series)
[11] = biological target: Estrogen receptor (Homo sapiens) (UniProt P03372); experiment: qHTS assay to identify small molecule agonists of the estrogen receptor alpha (ER-alpha) signaling pathway (AID 743075; calls by dose curve;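 note: HEK293 GripTite cells with ER-alpha and UAS-driven beta-lactamase reporter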); details: HEK293 ER-alpha-UAS-bla, beta-lactamase FRET ratio, 18 h; at 70.1 µM (top of the series)
[12] = biological target: Estrogen receptor (Homo sapiens) (UniProt P03372); experiment: qHTS assay to identify small molecule agonists of the estrogen receptor alpha (ER-alpha) signaling pathway using the BG1 cell line (AID 743079); details: BG1Luc4E2 cells, ERE-luciferase agonist, 22 h; at 70.3 µM (top of the series); note: nearly all actives have a fitted effect of over 20% in size
[13] = qHTS assay to identify small molecule antagonists of the estrogen receptor alpha (ER-alpha) signaling pathway using the BG1 cell line (AID 743080; calls by dose curve;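 note: BG1 cells stimulated with 17beta-estradiol alongside compound; nearly all actives have a fitted effect of over 25% in size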); details: BG1Luc4E2 ERE-luciferase antagonist mode, luminescence; at 70.3 µM (top of the series)
In short: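 After 5 days in phenol-red-free 10% charcoal-stripped FBS medium, BG1-Luc-4E2 cells were seeded, left 24 h at 37 C, co-treated with compounds and 17beta-estradiol for 21.5 h, then assayed for viability and luciferase.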

[14] = qHTS assay to identify small molecule antagonists of the estrogen receptor alpha (ER-alpha) signaling pathway using the BG1 cell line - cell viability counter screen (AID 743081); details: BG1Luc4E2 viability, CellTiter-Fluor, 22 h; at 70.3 µM (top of the series);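 note: compound given together with 17beta-estradiol as the ER stimulus; nearly all actives have a fitted effect of over 45% in size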
[15] = biological target: Aromatase (Homo sapiens) (UniProt P11511); experiment: qHTS assay to identify aromatase inhibitors (AID 743083); details: MCF-7 aro ERE, testosterone-driven ERE luciferase, 24 h; at 70.3 µM (top of the series); note: nearly all actives have a fitted effect of over 55% in size
[16] = qHTS assay to identify aromatase inhibitors - cell viability counter screen (AID 743084); details: MCF-7 aro ERE viability, CellTiter-Fluor, 24 h; at 70.3 µM (top of the series);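 note: cells stimulated with testosterone during compound exposure; nearly all actives have a fitted effect of over 55% in size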
[17] = qHTS assay to identify small molecule that activate the aryl hydrocarbon receptor (AhR) signaling pathway - cell viability counter screen (AID 743086); details: HepG2-AhR-luc viability, CellTiter-Fluor, 24 h; at 70.3 µM (top of the series)
In short: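 HepG2-AhR-luc (HG2L7.5c1) cells, 4000/well, treated 24 h at 37 C with compound; viability measured as CellTiter-Fluor fluorescence after 30 min in the same wells as the luciferase read.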

[18] = biological target: Peroxisome proliferator-activated receptor gamma (Homo sapiens) (UniProt P37231); experiment: qHTS assay to identify small molecule agonists of the peroxisome proliferator-activated receptor gamma (PPARg) signaling pathway (AID 743094; active = well fitted activation curve with a large enough effect in the signal ratio in the repeat runs, not every such curve was filed as active; the % refers to the signal ratio); details: HEK293H PPARg-UAS-bla, beta-lactamase FRET ratio, 17 h; at 57 µM (top of the series)
In short: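 Quantitative HTS agonist mode: stable HEK293H line with UAS-beta-lactamase reporter under PPARg control, 17 h compound exposure at 37C, fluorescence after 1 h FRET substrate loading at room temperature.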
% is set by controls: 0 for no effect and ±100 for the full control effect.

CN1CCCC(OC(=O)C(O)(c2ccccc2)c2ccccc2)C1 (stereo not drawn)
inactive: activity change, negative = cytotoxicity [1] -17.6% | activity, negative = cytotoxicity [2] -1.86% | activity change, negative = cytotoxicity [3] -11% | activity change, negative = cytotoxicity [4] 3.37% | viability change, negative = cytotoxic [5] 7.23% | activity change, negative = cytotoxic [6] -12% | activity, negative = inhibition [7] -8.28% | activation [8] -1.73% | activity, negative = inhibition [9] 3.39% | activity, negative = cytotoxicity [10] -5.88% | activation [11] 1.52% | activation [12] 6.45% | activity change, negative = inhibition [13] -0.645% | activity change, negative = cytotoxicity [14] -1.91% | activity, negative = inhibition [15] 0.253% | activity change, negative = cytotoxicity [16] 1.39% | viability change, negative = cytotoxic [17] -1.64% | activation [18] -8.44%
